## Yeast mating assay B: variants of the scFv Ab-14

Source: Li et al. 2023 (doi:10.1038/s41467-023-39022-2), MIT Lincoln Laboratory and A-Alpha Bio; data file from the FLAb repository.

The target is the same throughout: PDVDLGDISGINAS, from the HR2 region of SARS-CoV-2 spike.

Parent scFv Ab-14: VH joined to VL by a (GGGGS)3 linker. Changes lie in the heavy chain CDRs alone.
VH: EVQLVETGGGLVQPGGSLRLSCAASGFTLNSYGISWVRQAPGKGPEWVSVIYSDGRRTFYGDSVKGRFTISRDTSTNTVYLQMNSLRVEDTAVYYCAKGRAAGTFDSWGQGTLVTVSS
VL: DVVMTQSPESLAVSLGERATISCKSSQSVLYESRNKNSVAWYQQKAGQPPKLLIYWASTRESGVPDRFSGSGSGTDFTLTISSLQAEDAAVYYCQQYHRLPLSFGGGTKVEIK

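Phage display of a naive human antibody library on the peptide gave the parent. The variants were designed computationally from a first round of random CDR variants and then made and measured. Their group label is 14H_GPLM_Gen (GPLM: also part of the Gaussian process libraries; Gen: genetic algorithm; a sequence that several methods proposed may carry one label only). The assay is AlphaSeq: two haploid yeast populations carry antibody and antigen on their surface. The frequency of each diploid, read from paired DNA barcodes, reflects how well the two displayed proteins bind. Each replicate has its own calibration line, from reference interactions of the BCL2 family. The assay was run in six technical replicates.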

The parent's heavy chain CDRs are GFTLNSYGIS, VIYSDGRRTFYGDSVK, GRAAGTFDS; each variant's own CDRs replace them letter for letter.
Numbers give log10(Kd / nM), so 0 is 1 nM and 3 is 1 µM. Smaller is tighter.
Replicates are averaged; those with no signal do not enter the mean.
"nd" means that the variant was in the library but no mating with the target was seen in that replicate; the authors take this as a sign of poor binding, and no number exists.
The authors averaged sequences with at least three values out of six and counted those with two or fewer as poor binders.

| CDR-H1 | CDR-H2 | CDR-H3 | log10 Kd (nM) by replicate | mean log10 Kd (nM) | signal with controls |
|---|---|---|---|---|---|
| GFSLNSYGIS | VIYSDGRRTFYADSVK | GQTAGTFDN | 0.00 / -0.05 / 0.07 / 0.02 / 0.02 / 0.52 | 0.10 | 0 of 18 |
| GFTLNSYGIS | VIYSDGRRTFYGDSVK | GKEAGTFDT | -0.41 / 0.80 / 0.70 / 0.78 / 0.54 / 0.67 | 0.51 | 0 of 18 |
| GFSLNSYGIS | VIYSDGRRTFYIDSVK | GQAAGTFDA | -0.23 / 0.42 / -0.23 / -0.08 / -0.20 / 0.99 | 0.11 | 0 of 18 |
| GFSLNSYGIS | VIYSDGRRTFYGDSVK | GQTAGTFDS | 0.57 / 1.15 / 0.55 / 0.67 / 0.51 / 0.73 | 0.70 | 0 of 18 |
| GFTLNSYGIS | VIYSDGRRTFYSDDVK | GNAAGTFDS | 0.01 / -0.67 / -0.29 / -0.82 / -0.23 / nd | -0.40 | 0 of 18 |
| AFTLNSYGIS | VIYSDGRRTFYSDSVK | GEAAGTFDS | 1.55 / 0.90 / 1.20 / 1.29 / 1.28 / 1.63 | 1.31 | 0 of 18 |
| GFSLNSYGIS | VIYSDGRRTFYGDSVK | GHAAGTFDL | 0.71 / 1.01 / 0.63 / 0.91 / 0.63 / 1.00 | 0.81 | 0 of 18 |
| GFSLNEYGIS | VIYSDGRRTFYKDSVK | GRTAGTFDS | 0.14 / -0.24 / -0.33 / -0.52 / 0.00 / -0.36 | -0.22 | 1 of 18 (2.28) |
| GFQLNSYGIS | VIYSDGRRTFYADSVK | GEAAGTFDS | 1.55 / 2.52 / 1.95 / 1.74 / 2.09 / 1.99 | 1.97 | 0 of 18 |
| GFSLKSYGIS | VIYSDGRRTFYADSVK | GRAAGTFDS | -0.58 / -0.18 / -0.44 / 0.01 / -0.27 / 0.95 | -0.08 | 0 of 18 |
| GFNLNSYGIS | VIYSDGRRTFYADSVK | GRQAGTFDS | nd / 0.23 / nd / -0.40 / nd / nd | -0.09 | 0 of 18 |
| GFSLNSYGIS | VIYSDGRRTFYGDSVK | GQTAGTFDR | 1.39 / nd / 1.67 / 0.07 / 1.57 / 0.15 | 0.97 | 0 of 18 |
| GFHLNDYGIS | VIYSDGRRTFYGDSVK | GRTAGTFDS | 0.36 / 0.28 / 0.49 / 0.64 / 0.35 / 0.30 | 0.40 | 2 of 18 (1.41) |
| GFSLNSYGIS | VIYSDGRRTFYIDSVK | GQVAGTFDS | nd / 0.38 / 1.12 / nd / nd / 0.64 | 0.71 | 0 of 18 |
| GFELNSYGIS | VIYSDGRRTFYADSVK | GNTAGTFDS | 0.01 / 0.12 / 0.21 / -0.14 / -0.20 / -0.07 | -0.01 | 2 of 18 (2.03) |
| GFSLNSYGIS | VIYADGRRTFYGDSVK | GSAAGTFDS | 0.27 / 0.41 / 0.52 / 0.84 / 0.28 / 0.35 | 0.44 | 0 of 18 |
| GFSLNSYGIS | VIYSDGRRTAYDDSVK | GRAAGTFDS | 0.30 / -0.06 / -0.10 / -0.09 / 0.27 / 0.05 | 0.06 | 2 of 18 (1.75) |
| GFSLNNYGIS | VIYSDGRRTFYIDSVK | GKAAGTFDS | 0.86 / 0.85 / 0.82 / 0.48 / 0.90 / 0.62 | 0.75 | 0 of 18 |
| GFPLNDYGIS | VIYSDGRRTFYGDSVK | GRTAGTFDS | 0.43 / 0.44 / 0.35 / 0.48 / 0.35 / 0.64 | 0.45 | 0 of 18 |
| GFSLNEYGIS | VIYSDGRRTFYADSVK | GNAAGTFDS | 0.69 / 1.34 / 0.86 / 0.74 / 0.95 / 0.82 | 0.90 | 0 of 18 |
| GFSLNMYGIS | VIYSDGRRTFYGDSVK | GQTAGTFDS | 0.88 / 0.85 / 0.40 / 0.77 / 0.84 / 0.94 | 0.78 | 0 of 18 |
| GFNLNSYGIS | VIYADGRRTFYGDSVK | GRTAGTFDS | -0.12 / 0.05 / -0.11 / 0.07 / -0.06 / 0.06 | -0.02 | 0 of 18 |
| GFELNDYGIS | VIYSDGRRTFYGDSVK | GRTAGTFDT | -0.49 / 0.62 / 0.39 / -0.42 / 0.66 / -0.41 | 0.06 | 0 of 18 |
| GFSLNEYGIS | VIYSDGRRTFYMDSVK | GQAAGTFDS | 0.54 / 0.78 / 0.47 / 0.27 / 0.36 / 0.38 | 0.46 | 0 of 18 |
| GFTLNEYGIS | VIYSDGRRTFYGDSVK | GRYAGTFDT | 0.19 / -0.30 / 0.47 / -0.38 / -0.13 / 0.40 | 0.04 | 0 of 18 |
| GFSLNEYGIS | VIYSDGRRTFYGDSVK | GRTAGTFKS | nd / nd / nd / nd / nd / nd | nd | 0 of 18 |
| GFSLNNYGIS | VIYSDGRRTFYGDAVK | GRTAGTFDS | 0.71 / 0.58 / 0.79 / 0.73 / 0.70 / 1.13 | 0.77 | 0 of 18 |
| GFSLNEYGIS | VIYSDGRRTFYVDSVK | GRAAGTFDS | 0.29 / 0.28 / 0.39 / 0.30 / 0.06 / 0.54 | 0.31 | 1 of 18 (4.37) |
| GFQLNSYGIS | VIYSDGRRTFYADSVK | GRQAGTFDS | 1.78 / 0.73 / 0.87 / 1.04 / 0.62 / 1.96 | 1.17 | 1 of 18 (1.39) |
| GFELNSYGIS | VIYSDGRRTFYHDSVK | GQAAGTFDS | 0.59 / 0.62 / 0.83 / 1.02 / 0.52 / 0.58 | 0.69 | 0 of 18 |
| GFSLNSYGIS | VIYSDGRRTAYHDSVK | GRAAGTFDS | 0.25 / 0.50 / 0.21 / 0.16 / 0.74 / 0.56 | 0.40 | 0 of 18 |
| GFDLNMYGIS | VIYSDGRRTFYGDSVK | GRTAGTFDS | 0.44 / 0.55 / 0.47 / 0.28 / 1.11 / 1.22 | 0.68 | 1 of 18 (1.65) |
| KFSLNSYGIS | VIYSDGRRTFYSDSVK | GRTAGTFDS | nd / nd / nd / 2.22 / nd / nd | 2.22 | 1 of 18 (2.37) |
| GFSLNSYGIS | VIYSDGRRTFYIDSVK | GMAAGTFDS | nd / nd / nd / 1.91 / nd / 3.05 | 2.48 | 0 of 18 |
| GFTLNSYGIS | VIYSDGRRTFYADSVK | GAAAGTFDS | 0.38 / 0.37 / -0.04 / 0.40 / 2.06 / 0.41 | 0.60 | 0 of 18 |
| GFSLNSYGIS | VIYSDGRRTFYKDSVK | GRAAGTFDS | 1.29 / -0.49 / 0.48 / 0.60 / -0.25 / -0.20 | 0.24 | 0 of 18 |
| GFWLNMYGIS | VIYSDGRRTFYADSVK | GRTAGTFDS | nd / nd / nd / nd / nd / nd | nd | 0 of 18 |
| GFGLNSYGIS | VIYSDGRRTFYQDSVK | GRTAGTFDS | 0.90 / 0.90 / 1.03 / 1.25 / 1.13 / 0.73 | 0.99 | 0 of 18 |
| GFTLNSYGIS | VIYSDGRRTFYSDSVK | GKEAGTFDS | -0.22 / 0.16 / -0.15 / 0.36 / -0.27 / 0.20 | 0.01 | 0 of 18 |
| GFSLNSYGIS | VIYSDGRRTAYGDSVK | GRVAGTFDS | -0.47 / 0.18 / -0.24 / 0.29 / -0.92 / 1.28 | 0.02 | 0 of 18 |
| GFSLNSYGIS | VIYSDGKRTFYADSVK | GNAAGTFDS | 0.11 / -0.08 / 0.24 / -0.05 / -0.51 / -0.22 | -0.09 | 0 of 18 |
| GFSLNSYGIS | VIYSDGRRTFYHDSVK | GRTAGTFDS | 0.73 / 0.03 / 0.71 / 0.32 / 0.25 / 0.51 | 0.43 | 0 of 18 |
| GFTLNSYGIS | VIYSDGRRTFYSDSVK | GSAAGTFDL | 2.26 / 0.89 / 0.61 / 0.45 / 0.73 / 0.72 | 0.94 | 0 of 18 |
| GFTLESYGIS | VIYSDGRRTFYADSVK | GNAAGTFDS | 1.17 / 0.42 / 0.55 / 0.39 / -0.03 / 0.25 | 0.46 | 0 of 18 |
| GFSLNSYGIS | VIYSDGRRTFYADSVK | GQAAGTFDA | -0.25 / -0.27 / -0.52 / -0.28 / -0.10 / -0.28 | -0.28 | 1 of 18 (3.08) |

The closing 3 entries, repeated:

{"CDR-H1": "GFTLNSYGIS", "CDR-H2": "VIYSDGRRTFYSDSVK", "CDR-H3": "GSAAGTFDL", "log10 Kd (nM) by replicate": "2.26 / 0.89 / 0.61 / 0.45 / 0.73 / 0.72", "mean log10 Kd (nM)": "0.94", "signal with controls": "0 of 18"}
{"CDR-H1": "GFTLESYGIS", "CDR-H2": "VIYSDGRRTFYADSVK", "CDR-H3": "GNAAGTFDS", "log10 Kd (nM) by replicate": "1.17 / 0.42 / 0.55 / 0.39 / -0.03 / 0.25", "mean log10 Kd (nM)": "0.46", "signal with controls": "0 of 18"}
{"CDR-H1": "GFSLNSYGIS", "CDR-H2": "VIYSDGRRTFYADSVK", "CDR-H3": "GQAAGTFDA", "log10 Kd (nM) by replicate": "-0.25 / -0.27 / -0.52 / -0.28 / -0.10 / -0.28", "mean log10 Kd (nM)": "-0.28", "signal with controls": "1 of 18 (3.08)"}

A sequence measured in both rounds can read differently, since the two assays cover different ranges.
As a blank, each scFv also met three strains without target: over all heavy chain designs, 1% of these pairings were detected, typically at 2.08 and seldom below 0.84. The control count says in how many pairings with the empty strains this scFv gave a signal, with their mean in brackets.